Molecular target: SSTR1-V2R-NTEV-tevS-GV (human) (UniProt P30872)

The chains behind the UniProt entries cited, without tags or fusion partners. Where a name states a change or a piece, a line headed by the entry shows the natural chain unless it says otherwise.
UniProt P30872: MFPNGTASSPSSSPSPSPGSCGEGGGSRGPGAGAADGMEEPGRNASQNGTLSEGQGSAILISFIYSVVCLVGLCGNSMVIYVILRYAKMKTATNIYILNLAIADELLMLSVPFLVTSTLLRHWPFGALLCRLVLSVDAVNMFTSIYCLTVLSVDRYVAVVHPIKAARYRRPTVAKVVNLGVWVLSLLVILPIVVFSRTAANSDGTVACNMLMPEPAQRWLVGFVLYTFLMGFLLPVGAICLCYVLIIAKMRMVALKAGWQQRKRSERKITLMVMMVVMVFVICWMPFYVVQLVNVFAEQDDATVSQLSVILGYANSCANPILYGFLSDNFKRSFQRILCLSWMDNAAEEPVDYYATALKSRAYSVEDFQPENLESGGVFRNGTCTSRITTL

β-arrestin2 recruitment to the receptor (split TEV, EXT barcode read-out, multiplexed, U2OS cells), fold change over unstimulated, somatostatin 100 pM to 100 µM: 4 fold
Substance: Somatostatin (peptide)

Source: paper PMC5970223, “Multiplexed profiling of GPCR activities by combining split TEV assays and EXT-based barcoded readouts” (Scientific Reports, 2018)
